IC50 data for 1 compound are collected here from US8524710B2 (priority 2010, dated 2013).

By UniProt entry, the sequences of proteins in these tests, tags left out. Residues count along the entry.
UniProt P25774, 115-331: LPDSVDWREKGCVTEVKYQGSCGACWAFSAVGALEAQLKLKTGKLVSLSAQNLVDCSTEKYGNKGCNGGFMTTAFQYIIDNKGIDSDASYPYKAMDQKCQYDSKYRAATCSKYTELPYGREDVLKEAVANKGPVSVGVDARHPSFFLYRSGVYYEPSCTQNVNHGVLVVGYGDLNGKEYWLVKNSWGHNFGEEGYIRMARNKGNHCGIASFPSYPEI

Structures are written as SMILES.

The test addresses human Cat S (Homo sapiens (Human), UniProt P25774). Description: biochemical.

In the case of `Cc1cc(N2CC[C@H](S(=O)(=O)c3ccccc3C(F)(F)F)C2)nc(C#N)n1` [Example 16, 4-Methyl-6-[(S)-3-(2-trifluoromethyl-benzenesulfonyl)-pyrrolidin-1-yl]-pyrimidine-2-carbonitrile], the IC50 came out at 0.245 nM.
